# According to patent US20100130599A1, “CYP2C9*8 Alleles Correlate With Decreased Warfarin Metabolism And Increased Warfarin Sensitivity” (priority 2008, published 2010):
# Like-named read-outs stand apart in the source and are kept apart here.
# Source text: A total of 226 African American patients having demographic and clinical parameters as depicted in Table 1 were studied.
# Patients were enrolled from the pharmacist-managed anticoagulation clinics at the University of Illinois Medical Center at Chicago and at the University of Florida in Gainesville. […] Aquilante, C. […] Pharmacogenomics 8, 1535-44 (2007). Patients with a history of liver dysfunction or serum transaminase levels greater than 3 times the upper limit of normal were excluded.
# After obtaining written informed consent and authorization for medical record review, a buccal cell sample was collected for genetic analysis, as previously described. Andrisin, T. E., Humma, L. M. & Johnson, J. A. Collection of genomic DNA by the noninvasive mouthwash method for use in pharmacogenetic studies. Pharmacotherapy 22, 954-60 (2002). Demographic, clinical, and social history were assessed through patient interview and review of the medical record. This study was approved by the Institutional Review Board at each institution.
# Genomic DNA was isolated from buccal cells using a commercially available kit (PureGene,® Qiagen, Valencia, Calif.) according to kit manufacturer instructions. The CYP2C9 R144C (*2), […] (*3) and D360E (*5) alleles and VKORC1 −1639G>A genotype were determined as previously described. Aquilante, C. […] The VKORC1 −4451A>C, 497G>T, and 3730A>G genotypes, and APOE 112C>T and 158C>T genotypes were determined by PCR and pyrosequencing. […]
# Prior to determination of additional genotypes, genomic DNA was amplified by the whole genome amplification (WGA) technique, using the REPLI-g midi kit (Qiagen). […] Proc Natl Acad Sci USA 99, 5261-6 (2002) The fidelity of amplification was verified by comparing genotypes for CYP2C9*2, *3, *5 and VKORC1 −1639G>A determined before and after WGA. […] The CYP2C9*8 genotype was determined by bi-directional DNA sequencing at Agencourt Biosciences after uniplex PCR amplification performed by Osmetech Molecular Diagnostics.
# Data are expressed as numbers (percentages), mean±SD, or median (inter-quartile range). […]
compound,measurement,setting,value
CC(=O)CC(c1ccccc1)c1c(O)c2ccccc2oc1=O (stereo not drawn) [warfarin],Median (IQR) dose,"CYP2C9 any variant, n=52",33.8 (28.0-40.6) mg/week
same,Median (IQR) dose,"VKORC1 −1639G > A AA, n=4",33.8 (27.8-35.3) mg/week
same,Median (IQR) dose,"VKORC1 −1639G > A GG, n=189",42.5 (33.8-56.3) mg/week
